Consider three compounds from paper PMC8006714 (Chemical Communications (Cambridge, England), 2021).

For assay [1], the target named is T1, SARS-CoV-2 M^pro (Severe acute respiratory syndrome coronavirus 2, UniProt P0DTD1).
The target in assay [2] is T1, SARS-CoV-2 M^pro. Description: biochemical. The following applies: read-out: % Mpro inhibition at 20 µM.

Counter-ions that a name gives are not always drawn.

As to `CN1CCc2cccc3c2[C@H]1Cc1ccc(O)c(O)c1-3` [Apomorphine hydrochloride hemihydrate], the “% Mpro inhibition at 20 µM” value on SARS-CoV-2 M^pro [1] is recorded as 100.0%.
As for `CN1CCc2cccc3c2[C@H]1Cc1ccc(O)c(O)c1-3` [Apomorphine hydrochloride], the inhibition at 20 µM on SARS-CoV-2 M^pro [2] is 97%.
Consider `C[C@@H](O)[C@H]1C(=O)N2C(C(=O)O)=C(SCCN=CN)C[C@H]12` [Imipenem monohydrate], for which the inhibition at 20 µM on SARS-CoV-2 M^pro [2] was 12.4%.

Usually inhibition stands for how much of the control response was suppressed.
